Assay: physchem
Details: octanol/water

**Q.** Which logP does the source give for `O=Cc1ccccc1[N+](=O)[O-]` [2-NITROBENZALDEHYDE] here?
**A.** 1.74

Source: ChEMBL document CHEMBL1125820, “Structure-activity relationship of mutagenic aromatic and heteroaromatic nitro compounds. Correlation with molecular orbital energies and hydrophobicity” (J Med Chem, 1991)
